By efflux ratio is commonly meant a quotient of directional permeabilities that is used to spot active efflux.

Data on 1 molecule can be found in ChEMBL document CHEMBL4613325, “Design of Development Candidate eFT226, a First in Class Inhibitor of Eukaryotic Initiation Factor 4A RNA Helicase” (J Med Chem, 2020).

The data set is described as follows: Efflux ratio in human Caco2 cells at 10 uM by LC/MS/MS analysis. The following applies: Caco-2.

Consider `COc1cc2c(c(OC)n1)[C@]1(O)[C@H](O)[C@H](CN(C)C)[C@@H](c3ccccc3)[C@]1(c1ccc(C#N)cc1)O2` [ZOTATIFIN], for which the efflux ratio at 10 µM is 4.
